Assay results from patent publication US6034108A, “Method for treating mental retardation” (Eli Lilly and Company, priority 1998, dated 2000).

Sequences of proteins named here, by UniProt entry; tags and fusion partners are left off. A change or cut given only in a name is not applied to a line headed by its entry.
UniProt P08482: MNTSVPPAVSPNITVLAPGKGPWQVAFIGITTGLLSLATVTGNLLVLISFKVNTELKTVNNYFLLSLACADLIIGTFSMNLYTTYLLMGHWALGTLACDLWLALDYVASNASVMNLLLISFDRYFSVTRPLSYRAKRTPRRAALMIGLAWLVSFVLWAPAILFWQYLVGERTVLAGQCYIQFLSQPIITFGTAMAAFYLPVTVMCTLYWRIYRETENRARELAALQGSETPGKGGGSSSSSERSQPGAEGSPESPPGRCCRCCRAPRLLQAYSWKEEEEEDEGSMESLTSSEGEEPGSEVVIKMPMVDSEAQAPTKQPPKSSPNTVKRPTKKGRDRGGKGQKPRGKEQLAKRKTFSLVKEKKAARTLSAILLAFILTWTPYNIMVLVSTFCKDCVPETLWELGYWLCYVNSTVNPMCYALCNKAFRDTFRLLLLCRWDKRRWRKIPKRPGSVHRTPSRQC

Molecular target: m1 receptors in hippocampus (Rattus norvegicus, UniProt P08482)
Test: biochemical

Structure (SMILES): CCCCCCOc1nsnc1C1=CCCN(C)C1 [Xanomeline, 3-(4-hexyloxy-1,2,5-thiadiazol-3-yl)-1,2,5,6-tetrahydro-1-methylpyridine]
- Ki: 5 nM
